In patent US9469674B2 (HAINAN UNIVERSITY, dated 2016):

What was measured:
[1] = test system: hot-plate pain threshold in Kunming mice; conditions: mouse, in vivo
[2] = test system: Chronic Constriction Injury model of ischiadic nerve (neuralgia); conditions: rat, in vivo

With `CN1CC[C@]23c4c5ccc(O)c4O[C@H]2[C@@H](O)C=C[C@H]3[C@H]1C5` [morphine, reference compound] the pain threshold [1] was 32 s and the “average analgesic value (Mechanical Threshold, % of basal)” value [2] was 120%.
